Results on 2 molecules are retold here after patent US5565566A (Discovery Therapeutics, Inc., priority 1995, dated 1996).

In one assay the test system is adenosine receptor. The settings on record: cited from earlier work.
In the next assay the target is T1, A2 receptors (Homo sapiens, UniProt P29274).
T1 construct: Human Platelet Membranes; from tissue; host or cells: human platelets (membranes)
In words: antagonism of NECA-stimulated adenylate cyclase in human platelet membranes (A). It counts as biochemical.

Turning to `CCNC(=O)[C@H]1O[C@@H](n2cnc3c(N)ncnc32)[C@H](O)[C@@H]1O` [NECA, 5'-N-ethylcarboxamido-adenosine], the “selectivity among adenosine receptors” value in the assay on adenosine receptor is on record as “selective for A2 adenosine receptors”.

For `Cn1cnc2c(N)ncnc21` [9-Methyladenine (9-MA), 9-Methyladenine, reference compound], the Kb at A2 receptors was 24 µM.

The Kb is the affinity of an antagonist, worked out from how it opposes an agonist. The low end stands for higher antagonist affinity, the high end for lower antagonist affinity.
